This test concerns the target D(2) dopamine receptor (Rattus norvegicus, UniProt P61169).

The chains behind the UniProt entries cited, without tags or fusion partners.
UniProt P61169, whole entry: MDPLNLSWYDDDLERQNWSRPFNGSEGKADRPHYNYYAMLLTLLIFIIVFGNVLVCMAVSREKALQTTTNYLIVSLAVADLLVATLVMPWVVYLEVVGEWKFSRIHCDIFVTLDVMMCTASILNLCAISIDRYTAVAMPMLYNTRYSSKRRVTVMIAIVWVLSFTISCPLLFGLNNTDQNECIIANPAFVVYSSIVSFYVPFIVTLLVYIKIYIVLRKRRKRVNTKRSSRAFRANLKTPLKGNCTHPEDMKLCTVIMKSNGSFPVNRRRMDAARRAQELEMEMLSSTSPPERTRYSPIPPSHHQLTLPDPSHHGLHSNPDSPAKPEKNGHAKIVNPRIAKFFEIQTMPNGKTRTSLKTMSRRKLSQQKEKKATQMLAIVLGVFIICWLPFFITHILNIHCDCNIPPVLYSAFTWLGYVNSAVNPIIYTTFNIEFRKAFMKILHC

The record followed here is ChEMBL document CHEMBL1127372, “The discovery and structure-activity relationships of 1,2,3,6-tetrahydro-4-phenyl-1-[(arylcyclohexenyl)alkyl]pyridines. Dopamine autoreceptor agonists and potential antipsychotic agents” (J Med Chem, 1994).

As usually defined, the Ki is the dissociation constant of the complex between target and ligand, obtained from inhibition or displacement. Higher therefore signals weaker binding. `CN1CCc2cccc3c2[C@H]1Cc1ccc(O)c(O)c1-3` [APOMORPHINE] had a Ki of 17.3 nM.
